# Screening data deposited in PubChem by National Center for Advancing Translational Sciences (NCATS).
# Compounds with a hit are over-represented: about 2.3% of the library has one in this group of screens.
# A549 viability = A549 cytotoxicity, counter-screen for Nrf2 inhibitors; A549 ARE-Fluc cells, CellTiter-Fluor viability, 18-24 h; Potency, µM (series often up to 46 µM), inactives show at the highest dose activity change, negative = cytotoxicity, hits mostly inhibitors; 0.16% of 390,000 active; AID 504648; further: potency means the concentration at half of the fitted maximal effect; on the % scale 0 is the no-effect control and ±100 the full control effect
#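 Cytotoxicity counterscreen: CellTiter-Fluor fluorescence was measured in A549 ARE_Fluc cells after 18-24 h of compound exposure in a concentration series. The subsequent BugLite luminescent read reports ARE-luciferase activity.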
# Nrf2 ARE act = activates Nrf2 signaling; 0.31% of 410,000 active; AREc32 ARE-luciferase reporter (MCF7-derived line), luminescence, 24 h; Potency, µM (series often up to 46.1 µM), for the others: at the highest dose activation, most hits filed as activators; further: potency means the concentration at half of the fitted maximal effect; % of control where 0% means no effect; nearly all actives have a fitted effect of over 65% in size
#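 Luminescent ARE reporter assay in AREc32_Fluc cells: overnight plating at 37 deg C, 24 hr compound incubation, Steady-Glo added, 30 min RT before reading.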
# miR-21 reporter = miR-21 reporter, rising signal | HeLa miR-21 FLuc reporter, luciferase, 48 h | Potency, µM (top dose mostly 38.3 µM), inactives show at the top dose reporter change, positive = more light | 340,000 tested, under 10 active | AID 2288; active = well fitted rising curve with a large enough effect; inconclusive = small, poorly fitted or top-dose-only effect; inactive = no such curve, though single readings can be large or run the other way;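 further: % of control where 0% means no effect; miR-21 action dims this reporter so a rising signal means less miR-21 action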
#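 Luminescence from a firefly luciferase reporter carrying a miR-21 binding site downstream, stably expressed under a CMV promoter in HeLa cells that make miR-21 endogenously, reports miRNA modulation after 48 h compound exposure up to approximately 40uM final.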
# Mito fusion act = inhibitors of mitochondrial division or activators of mitochondrial fusion; S. cerevisiae fusion-defective mutant growth rescue, CellTiterGlo 48 h; Potency, µM (doses to about 46.1 µM), for inactives: at the top dose growth rescue (activation), usual class: activators; 0.23% of 320,000 active; AID 485298; further: potency means the concentration at half of the fitted maximal effect; % of control where 0% means no effect; nearly all actives have a fitted effect of over 45% in size
#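 S. cerevisiae fusion-defective temperature-sensitive mutants (e.g. fzo1-1, mgm1-5) grown 48 h at 37C in YPEG (ethanol/glycerol non-fermentable) medium with 23 nl compound per well; growth rescue read as CellTiterGlo luminescence.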
# Nrf2 inh = inhibitors of Nrf2 signaling; 2.1% of 360,000 active; AID 504444; A549 ARE-Fluc reporter, luciferase luminescence, 18-24 h; Potency, µM (titrated, usually from 46 µM), for inactives: at the highest dose activity change, negative = inhibition, actives largely listed as inhibitors; further: potency means the concentration at half of the fitted maximal effect; on the % scale 0 is the no-effect control and ±100 the full control effect; nearly all actives have a fitted effect of over 60% in size
#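 Concentration-response testing used A549 ARE_Fluc cells at 5000 cells/well. Following an 18-24 h compound incubation, viability was read by fluorescence (Ex 405/Em 525) and luciferase output by luminescence.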
# * = called active by the depositor; ? = inconclusive; . = not tested or not shown; ! = a repeat was not active. Unless noted, the call rests on the fitted dose curve; in most records, active means well fitted curve in the direction sought with a large enough effect; inconclusive means small, poorly fitted or top-dose-only effect, or another doubt; inactive means no such curve, though single readings can be large; an effect the other way counts as inactive or inconclusive.
1) COc1ccc(-c2nn3c(-c4cc(C)[nH]n4)nnc3s2)cc1
2) CCOC(=O)c1c(-c2ccccc2)oc2ccc(NS(=O)(=O)c3ccc(C(C)C)cc3)cc12
3) NC(=O)c1ccc(NC(=O)COC(=O)c2cc([N+](=O)[O-])ccc2N2CCOCC2)cc1
4) O=C(COC(=O)c1cc([N+](=O)[O-])ccc1N1CCOCC1)Nc1ccc(Cl)cc1
5) CC(Oc1ccc(Br)cc1Cl)C(=O)Nc1ccncc1 (stereo not drawn)
6) CCc1ccc2[nH]c(=O)c(C3C(C#N)=C(N)Oc4c3ccc3cccnc43)cc2c1 (stereo not drawn)
7) C/C(N)=C(/C#N)C(=O)CSc1nnc(SCc2ccc(Cl)cc2)s1
8) C/C(N)=C(/C#N)C(=O)CSc1nn(-c2ccc(Cl)cc2)c(=S)s1
Compound | 1 | 2 | 3 | 4 | 5 | 6 | 7 | 8
A549 viability | 0.0% | -5.6% | -18.0% | ? | 0.3% | ? | -14.7% | -0.1%
Nrf2 ARE act | . | -1.2% | -0.1% | -0.4% | -1.1% | -0.4% | 6.1% | 6.7%
miR-21 reporter | . | 22.2% | . | 14.4% | 12.4% | 17.5% | 0.9% | -37.3%
Mito fusion act | . | . | -1.1% | -5.4% | 1.6% | 6.6% | 4.5% | 5.1%
Nrf2 inh | -15.2% | ? | -15.4% | 18.4µM* | 20.6µM* | 14.6µM* | 20.6µM* | -54.0%

9) CCOc1ccc2nc(C)cc(Nc3ccccc3OCC)c2c1
10) CCN1C(=O)Nc2cccc3cccc1c23
11) Cc1ccc(NS(=O)(=O)c2cc3c(cc2F)NC(=O)CC3)cc1C
12) COc1ccc(Br)cc1CNC(=O)C1COc2ccccc2C1 (stereo not drawn)
13) CCOC(=O)C1=C(CS(=O)(=O)c2ccc(C)c(C)c2)NC(=O)NC1c1ccccc1OCC (stereo not drawn)
14) O=C(NCCc1ccccc1)c1ccc2c(c1)OCCCO2
15) CCOC(=O)N1CCc2c(sc(NCc3cc(OC)ccc3OC)c2C(=O)Nc2cc(OC)ccc2OC)C1
16) Cc1ccc(C)c(C(=O)COc2ccccc2[N+](=O)[O-])c1
Compound | 9 | 10 | 11 | 12 | 13 | 14 | 15 | 16
A549 viability | -13.3% | 1.9% | 1.4% | -0.7% | -1.0% | -0.8% | 8.7% | 11.7%
Nrf2 ARE act | 8.5% | ? | . | -0.1% | 0.7% | -1.9% | 10.2% | 22.4µM*
miR-21 reporter | -8.8% | . | . | -28.0% | ? | ? | -1.9% | -4.3%
Mito fusion act | . | . | . | . | . | -9.8% | . | -2.0%
Nrf2 inh | -6.0% | 8.2µM* | -24.3% | . | 10.8% | 2.06µM* | . | -3.7%

17) O=C(NCC1CCCO1)C(c1cccs1)N(Cc1cccs1)C(=O)c1ccc(-c2ccccc2)[nH]1 (stereo not drawn)
18) O=C(NCC1CCCO1)C(c1ccc(F)cc1)N(CC1CCCO1)C(=O)c1ccc(-c2ccccc2)[nH]1 (stereo not drawn)
19) Cc1ccc(/C=C(\C#N)C(=O)Nc2ccccn2)o1
20) COc1ccc(/C=C(\C#N)C(=O)Nc2ccccn2)cc1
21) CC1(C)OC(=O)C2(Cc3ccc(Cl)cc3N3CCCC32)C(=O)O1 (stereo not drawn)
22) Cc1ccc(CCNC(=O)c2ccc(NC(=O)N3CCSc4ccccc43)cc2)cc1
23) CCOC(=O)c1c(C)oc2c1c(C=NCCO)c(O)c1ccccc12
24) COc1ccc(NC(=O)c2c(NCc3cccc(OC)c3)sc3c2CCC3)cc1
Compound | 17 | 18 | 19 | 20 | 21 | 22 | 23 | 24
A549 viability | ? | -1.2% | -7.4% | 3.1% | -0.9% | -1.1% | 23.1µM* | -1.0%
Nrf2 ARE act | 6.2% | -0.7% | 14.1µM* | -0.3% | . | -1.0% | 1.5% | 22.7%
miR-21 reporter | 10.5% | 2.9% | -45.1% | -3.3% | . | -2.4% | 26.8% | -2.5%
Mito fusion act | 15.8µM* | 0.4% | 6.1% | -3.7% | . | . | -0.5% | .
Nrf2 inh | ? | 5.4% | ? | -6.1% | 5.7% | -4.0% | 14.6µM* | .

25) Cc1nc(C)c(-c2ccc(SCC(=O)Nc3ccc(F)cc3F)nn2)s1
26) O=C1c2ccccc2S(=O)(=O)N1CC1CC(c2ccc(Cl)cc2)=NO1 (stereo not drawn)
27) O=C(O)c1ccccc1Nc1cc(Cl)c2nonc2c1[N+](=O)[O-]
28) O=[N+]([O-])c1c(Nc2ccccn2)cc(Cl)c2nonc12
29) O=C(CCSCc1cccc(Cl)c1)NCc1ccc(F)cc1Cl
30) CCN1C(=O)C(=O)c2cc(C)ccc21
31) CC[N+]1=C(C)C(C)(C)c2cc(C)ccc21
32) Cc1nc2ccc(NS(=O)(=O)c3ccc(F)cc3F)cc2s1
Compound | 25 | 26 | 27 | 28 | 29 | 30 | 31 | 32
A549 viability | -25.2% | -1.3% | ? | 18.4µM* | 3.6% | -3.5% | -18.1% | -0.3%
Nrf2 ARE act | -0.5% | 2.0% | 3.2% | -3.2% | -1.0% | 4.7% | -0.9% | 0.0%
miR-21 reporter | 10.5% | -68.5% | -0.9% | 26.5% | -3.5% | . | 23.2% | .
Mito fusion act | 1.4% | 15.8µM* | -0.5% | 1.0% | . | . | -1.0% | 9.7%
Nrf2 inh | 20.6µM* | ? | 4.8% | ? | . | 4.3% | 10.3µM* | 13µM*

33) Cc1nc2ccc(NS(=O)(=O)c3ccc(F)c(F)c3F)cc2s1
34) Cc1nc2ccc(NS(=O)(=O)c3ccc(C)c(C)c3)cc2s1
35) Cc1nc2ccc(NS(=O)(=O)c3c(F)cc(F)cc3Br)cc2s1
36) Cc1[nH]c2ccccc2c1N=Nc1ccc(F)cc1
37) CC1CN(C(=O)Nc2ccc(C(=O)NCc3ccccc3F)cc2)c2ccccc2S1 (stereo not drawn)
38) CCCCC(=O)Nc1cc(-c2cn3cccnc3n2)ccc1C
39) COCCOC(=O)CSc1ncccc1-c1nc2cc(C)c(C)cc2[nH]1
40) CCOc1ccc(NC(=O)c2cc(S(=O)(=O)N3CCC(C)CC3)cn2C)cc1
Compound | 33 | 34 | 35 | 36 | 37 | 38 | 39 | 40
A549 viability | 5.0% | -16.8% | -0.9% | ? | 13.8% | 0.6% | 1.7% | -0.1%
Nrf2 ARE act | 3.9% | 0.1% | -0.2% | ? | 2.6% | 0.3% | 2.6% | 0.4%
miR-21 reporter | . | 10.6% | . | -21.8% | 10.6% | -1.1% | -4.3% | -5.5%
Mito fusion act | . | -6.7% | 7.7% | -23.6% | . | . | -1.8% | .
Nrf2 inh | -22.1% | ? | 20.6µM* | 25.9µM* | 0.2% | . | 14.6µM* | .

# Ordered by the number under miR-21 reporter (smallest number first): 3 of the compounds above
item | molecule | Nrf2 ARE act | miR-21 reporter | Mito fusion act
36 | Cc1[nH]c2ccccc2c1N=Nc1ccc(F)cc1 | ? | -21.8% | -23.6%
40 | CCOc1ccc(NC(=O)c2cc(S(=O)(=O)N3CCC(C)CC3)cn2C)cc1 | 0.4% | -5.5% | .
37 | CC1CN(C(=O)Nc2ccc(C(=O)NCc3ccccc3F)cc2)c2ccccc2S1 (stereo not drawn) | 2.6% | 10.6% | .

# 2 records drawn at random from those above, as already listed:
40) CCOc1ccc(NC(=O)c2cc(S(=O)(=O)N3CCC(C)CC3)cn2C)cc1
37) CC1CN(C(=O)Nc2ccc(C(=O)NCc3ccccc3F)cc2)c2ccccc2S1 (stereo not drawn)
Compound | 40 | 37
A549 viability | -0.1% | 13.8%
Nrf2 ARE act | 0.4% | 2.6%
miR-21 reporter | -5.5% | 10.6%
Mito fusion act | . | .
Nrf2 inh | . | 0.2%

# Next section
41) CCOc1ccc(C(=O)N2CCN(Cc3cc(=O)n4nc(-c5ccccc5Cl)sc4n3)CC2)cc1
42) Cc1ccccc1-c1cc(C(=O)NCc2ccc(OC(F)(F)F)cc2)n(CC2CC(c3cccnc3)=NO2)n1 (stereo not drawn)
43) CN(C(=O)Nc1ccc(Cl)c(Cl)c1)c1ccccc1C(=O)O
44) Cc1cc(C)n2ncc(C(=O)NCC(C)C)c2n1
45) CC(C(O)c1ccc(O)cc1)N1CCC(Cc2ccccc2)CC1 (stereo not drawn)
46) C[C@@H](CN1CCC(Cc2ccccc2)CC1)[C@@H](O)c1ccc(O)cc1
47) COc1cccc2cc(C(=O)NCCc3c(C)[nH]c4ccc(Br)cc34)c(=O)oc12
48) COc1ccc(S(=O)(=O)c2cn(CC(=O)Nc3cc(C)ccc3C)c3ccccc3c2=O)cc1
49) COC(C(=O)Nc1ccc(S(=O)(=O)Nc2ccc(F)cc2)cc1)c1ccccc1 (stereo not drawn)
Compound | 41 | 42 | 43 | 44 | 45 | 46 | 47 | 48 | 49
A549 viability | -1.7% | -25.3% | -1.1% | 11.8% | -16.6% | 4.0% | 6.8% | 8.6% | -0.2%
Nrf2 ARE act | ? | -2.6% | -1.4% | . | -0.8% | 0.1% | 0.3% | -0.9% | 0.5%
miR-21 reporter | -2.4% | . | -19.0% | . | -0.4% | . | -1.1% | 1.8% | 11.5%
Mito fusion act | . | . | 17.8µM* | . | 16.4µM*! | 23.1µM*! | . | . | 5.9%
Nrf2 inh | . | 20.6µM* | 1.7% | -6.1% | -3.9% | -5.9% | -8.0% | 11.5% | -13.0%
